Where only a bound is given, the exact number is not on record here.

Sequences of proteins named here, by UniProt entry; tags and fusion partners are left off.
UniProt Q13526, whole entry: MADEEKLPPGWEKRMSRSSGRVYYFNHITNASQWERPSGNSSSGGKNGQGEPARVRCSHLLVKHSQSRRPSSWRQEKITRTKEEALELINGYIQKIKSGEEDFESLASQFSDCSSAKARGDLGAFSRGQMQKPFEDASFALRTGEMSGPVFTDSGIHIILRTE

In this assay the target is Pin1 (GST-Pin1) (Homo sapiens, UniProt Q13526). Kind of assay: Fluorescence polarization (FP) assay, binding to Pin1. Particulars: read-out: Ki, μM (FP Assay); competition with fluorescein-labeled peptide probe; 12 hours pre-incubation at 4° C.; Kenakin Ki equation.
On to `COC(=O)CC[C@H](NC(=O)CCl)C(=O)N1CCCC[C@H]1C(=O)N[C@@H](Cc1c[nH]c2ccccc12)C(=O)N[C@@H](CCCNC(N)=O)C(=O)N(C)Cc1ccc(C)cc1`, for which the Ki turned out to be 0.2 µM. Take `NC(=O)NCCC[C@H](NC(=O)[C@H](Cc1ccc2ccccc2c1)NC(=O)[C@@H]1CCCCN1C(=O)C[C@H](CC(=O)O)NC(=O)CCl)C(N)=O`: the Ki was greater than 10 µM. For the molecule `COC(=O)CC[C@@H](NC(=O)CCl)C(=O)N1CCCC[C@H]1C(=O)N[C@@H](Cc1c[nH]c2ccccc12)C(=O)N[C@@H](CCCNC(N)=O)C(=O)NCc1ccc(C)cc1`, the Ki was greater than 10 µM. As for `COC(=O)CC[C@H](NC(=O)CCl)C(=O)N1CCCC[C@H]1C(=O)N(C)[C@@H](Cc1c[nH]c2ccccc12)C(=O)N[C@@H](Cc1ccc(O)cc1)C(N)=O`, the Ki came to 4.8 µM.

Broadly, the Ki is the equilibrium dissociation constant of an inhibitor or competing ligand from its target.

Source of the values: patent US20210238225A1, “PEPTIDOMIMETIC INHIBITORS OF THE PEPTIDYL-PROLYL CIS/TRANS ISOMERASE (PIN1)” (DANA-FARBER CANCER INSTITUTE, INC., priority 2018, published 2021).
